## Apparent affinities of Ab-14 variants for a coronavirus HR2 peptide

From the AlphaSeq antibody data of Li et al. 2023 (doi:10.1038/s41467-023-39022-2), copy in the FLAb collection.

All variants were tested on one target, the spike HR2 peptide PDVDLGDISGINAS (SARS-CoV-2).

The variants keep the light chain, the linker and the frameworks of Ab-14 (scFv order VH, three GGGGS repeats, VL).
VH: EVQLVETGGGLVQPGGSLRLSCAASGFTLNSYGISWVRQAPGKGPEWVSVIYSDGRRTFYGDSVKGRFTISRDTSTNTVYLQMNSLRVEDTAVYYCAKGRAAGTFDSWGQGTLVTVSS
VL: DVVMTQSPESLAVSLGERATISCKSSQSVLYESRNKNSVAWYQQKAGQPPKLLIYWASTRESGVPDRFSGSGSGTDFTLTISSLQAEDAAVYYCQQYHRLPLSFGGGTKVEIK

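The parent was found by panning a naive human phage display library on the peptide. This is the validation round: designs drawn from the data on random variants, tested in the same kind of assay. Group labels follow the data file (En: ensemble of fine-tuned language models; HC: hill climbing; Gen: genetic algorithm; Gibbs: Gibbs sampling; a sequence that several methods proposed may carry one label only). In AlphaSeq, yeast of one mating type display the scFv and yeast of the other type display the target. The frequency of each diploid, read from paired DNA barcodes, reflects how well the two displayed proteins bind. A regression on co-assayed BCL2-family reference pairs converts the normalised counts of each replicate to an apparent Kd. Each pool was mated in six replicate cultures.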

The parent's heavy chain CDRs are GFTLNSYGIS, VIYSDGRRTFYGDSVK, GRAAGTFDS; each variant's own CDRs replace them letter for letter.
Variants here have more than six changes.
The Kd shown is the geometric mean over detected replicates; a lower Kd is a better binder.
"no signal" marks a missing value. The strain was present, yet no cells mated with the target were sequenced in any replicate, which points to weak or no binding.
The authors' rule: three or more of the six replicates give a measured affinity, fewer mean a poor binder.
The parent sequence was in this pool as ten entries: three were never detected, three once, and four in most replicates, with averages from 2.2 nM to 240 nM.
Values of this round are not directly comparable with the first-round values of the same sequences.
Empty control strains, which show no peptide, gave a signal in 1% of pairings with all heavy chain designs; the median was 120 nM and 95% of these signals were weaker than 7.0 nM. No background was subtracted. The control count says in how many pairings with the empty strains this scFv gave a signal.

With GFNLLEYGIS | VIYADGMRQAYVEDVK | GTNGTSVFF [En_Gibbs] the result was no signal (0 of 6 replicates; controls 0 of 18).
With GFDLEEYGIS | VIYADGMRTAYSDSVK | GEVAGTFDV [En_Gen] the result was 890 pM (6 of 6 replicates; controls 1 of 18).
With GFDLEEYGIS | VIYADGRRTFYADNVK | GENAGTFDI [En_HC] the result was 430 pM (6 of 6 replicates; controls 0 of 18).
With GFDLEEFGVS | VIYADGKRAAYTDSVK | GHEGAHFTV [En_Gibbs] the result was no signal (0 of 6 replicates; controls 0 of 18).
With GFDLDEYGIS | VIYADGRRTAYADSVK | GNVAGTFDI [En_Gen] the result was 270 pM (6 of 6 replicates; controls 0 of 18).
With GYDIDEYGIS | VIYADGQRTSYQQNVK | GAGDITGLV [En_Gibbs] the result was no signal (0 of 6 replicates; controls 0 of 18).
With GFDLQEYGIS | VIYADGERRAYADKVK | GTHGGTRDI [En_Gibbs] the result was no signal (0 of 6 replicates; controls 0 of 18).
With GFNLNEYGIS | VIYADGVRTFYADSVK | GQIAGTFIV [En_HC] the result was no signal (0 of 6 replicates; controls 0 of 18).
With GFALNEYGIS | VIYADGSRKAYINSVK | GVNNIDVNV [En_Gibbs] the result was no signal (0 of 6 replicates; controls 0 of 18).
With GFDLNEYGIS | VIYADGRRTAYSDSVK | GENAGTFDS [En_HC] the result was 190 pM (6 of 6 replicates; controls 0 of 18).
With GFDLDEYGIS | VIYADGRRTAYADSVK | GELAGTFFS [En_HC] the result was 810 pM (6 of 6 replicates; controls 0 of 18).
With GFDLDEYGIS | VIYADGRRTAYSDSVK | GNVAGTFDT [En_Gen] the result was 370 pM (6 of 6 replicates; controls 0 of 18).
With GFDLNEYGIS | VIYADGKRVAIEDSVK | GKSKGTVFV [En_Gibbs] the result was no signal (0 of 6 replicates; controls 0 of 18).
With GFGMEEFGIS | VIYADGQRLAYADEVK | GENAGSFDI [En_Gibbs] the result was no signal (0 of 6 replicates; controls 0 of 18).
With GFDLNEYGIS | VIYADGMRTFYTDDVK | GEVAGTFDM [En_HC] the result was 860 pM (6 of 6 replicates; controls 0 of 18).
With GKDLQEYGIS | VIYADGKREQYAGDVK | GGLTGQFTV [En_Gibbs] the result was no signal (0 of 6 replicates; controls 0 of 18).
With GFDLNEYGIS | VIYADGHRTFYSDSVK | GQIAGTFDA [En_HC] the result was 330 pM (6 of 6 replicates; controls 1 of 18).
With GFDLNEYGIS | VIYADGMRTAYADNVK | GENAGTFDT [En_Gen] the result was 410 pM (6 of 6 replicates; controls 0 of 18).
With GFDLNEYGIS | VIYADGKRTFYVDSVK | GETAGTFDV [En_HC] the result was 260 pM (6 of 6 replicates; controls 0 of 18).
With GFNLNEYGIS | VIYADGRRTFYADSVK | GNVAGTFDV [En_HC] the result was 540 pM (4 of 6 replicates; controls 0 of 18).
With GFDLDEYGIS | VIYADGKRTAYADSVK | GQVAGTFDI [En_Gen] the result was 950 pM (6 of 6 replicates; controls 0 of 18).
With GFDLTEYGIS | VIYADGKRSVYTNDVK | GELGLGFVI [En_Gibbs] the result was no signal (0 of 6 replicates; controls 1 of 18).
With GFDLNEYGIS | VIYADGQRTAYSDSVK | GNNAGTFDI [En_Gen] the result was 900 pM (6 of 6 replicates; controls 0 of 18).
With GFDLNEYGIS | VIYADGMRTAYADSVK | GSQAGTFDV [En_Gen] the result was 810 pM (6 of 6 replicates; controls 0 of 18).
With GFDLDEYGIS | VIYADGMRTAYADKVK | GNVAGTFDL [En_Gen] the result was 310 pM (6 of 6 replicates; controls 0 of 18).
With GFDLEDYGIS | VIYADGRRTFYADSVK | GEVAGTFDS [En_HC] the result was 360 pM (6 of 6 replicates; controls 0 of 18).
With GFSLNEYGIS | VIYADGRRTFYADSVK | GNQAGTFDE [En_HC] the result was 130 pM (6 of 6 replicates; controls 0 of 18).
With GKDLNEFGIS | VIYADGKRSQYAQDVK | GVLQGQGTV [En_Gibbs] the result was no signal (0 of 6 replicates; controls 0 of 18).
With GFDLNEYGIS | VIYADGVRTAYIDSVK | GNNAGTFDV [En_Gen] the result was 1.4 nM (6 of 6 replicates; controls 0 of 18).
With GFDINEYGVS | VIYADGMRSYYAGKVK | GSNGALFEV [En_Gibbs] the result was no signal (0 of 6 replicates; controls 0 of 18).
With GFDLDEYGIS | VIYADGRRTFYADSVK | GTLAGTFDV [En_HC] the result was 62 pM (6 of 6 replicates; controls 1 of 18).
With GFDLNEYGIS | VIYADGVRQAYSDSVK | GNVAGTFDV [En_Gen] the result was 380 pM (6 of 6 replicates; controls 1 of 18).

From the list, the first 2 with no signal in any replicate:

CDR-H1,CDR-H2,CDR-H3,group,Kd,seen in,empty controls
GFNLLEYGIS,VIYADGMRQAYVEDVK,GTNGTSVFF,En_Gibbs,no signal,0 of 6,0 of 18
GFDLEEFGVS,VIYADGKRAAYTDSVK,GHEGAHFTV,En_Gibbs,no signal,0 of 6,0 of 18